Test results: patent US20250255882A1, “TREATMENT OF CARDIAC CONDITION RELATED COGNITIVE DYSFUNCTION” (The Trustees of Columbia University in the City of New York, priority 2024, published 2025)

System: mouse model of HF (myocardial infarction, MI)
Assay: novel object recognition test (hippocampal-dependent short-term memory)
Format: in vivo
Details: MI mice, treated; MI 15%±4%, SHAM 48%±5%
Description: One-way analysis of variance (ANOVA) was used to compare the difference between the six groups in FIGS. 2B, 2C, 2E and 2F. Tukey's test was used for multiple comparisons; two-way ANOVA was used in FIG. 2D. […] All statistical tests were two sided with the data derived from biologically independent samples.
Next, a novel object recognition test was used to evaluate hippocampal-dependent short-term memory. (see Liu, X. et al. Role of leaky neuronal ryanodine receptors in stress-induced cognitive dysfunction. Cell 150, 1055-1067 (2012); and Bevins, R. A. & Besheer, J. Object recognition in rats and mice: a one-trial non-matching-to-sample learning task to study ‘recognition memory’. Nat. Protoc. 1, 1306-1311 (2006)).

## COc1ccc2c(c1)CN(C)CCS2 [S107]
  discrimination index: 46%±4%
